Yeast mating assay 1: variants of the scFv Ab-14

The measurements come from Engelhart et al. 2022 (doi:10.1038/s41597-022-01779-4) through the FLAb antibody collection.

All variants were tested on one target, the spike HR2 peptide PDVDLGDISGINAS (SARS-CoV-2).

The variants keep the light chain, the linker and the frameworks of Ab-14 (scFv order VH, a 15-residue (Gly4Ser)3 linker, VL).
VH: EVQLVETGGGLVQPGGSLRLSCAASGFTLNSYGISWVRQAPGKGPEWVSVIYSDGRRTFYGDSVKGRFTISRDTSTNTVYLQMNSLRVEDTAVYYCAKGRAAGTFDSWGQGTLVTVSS
VL: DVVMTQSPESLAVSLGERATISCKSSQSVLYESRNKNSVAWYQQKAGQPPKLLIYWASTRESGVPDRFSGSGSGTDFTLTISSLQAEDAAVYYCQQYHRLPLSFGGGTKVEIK

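In library AAYL49, one, two or three CDR residues were substituted; doubles and triples were drawn at random. Affinity was read by AlphaSeq, a pooled yeast mating assay with surface-displayed partners. After mating in shaken culture at 30 °C for 16 h, diploids were selected and their barcode pairs sequenced. A regression on co-assayed BCL2-family reference pairs converts the normalised counts of each replicate to an apparent Kd. Each pool was mated in three replicate cultures.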

Positions count from residue 1 of the parent VH; F27R puts R in place of F.
Numbers give log10(Kd / nM), so 0 is 1 nM and 3 is 1 µM. Smaller is tighter.
"n.d." means that the variant was in the library but no mating with the target was seen in that replicate; the authors take this as a sign of poor binding, and no number exists.
Parent in this assay: reference entry 0.65, copy in this library 4.11 (one replicate of three).
Nonspecific signal, from three strains lacking the peptide, appeared in 15% of pairings of library AAYL49, centred on 4.06 (5% of these signals below 2.83); values are not corrected for it. Also given: how often the same scFv was detected with the empty control strains, with their mean in brackets.

changes,log10 Kd (nM) by replicate,control signals
F27R/R57Y/T58L,n.d. / n.d. / n.d.,1 of 9 (3.91)
G55N/Y60R/V64F,5.47 / n.d. / 4.20,4 of 9 (4.76)
V50W/Y52K/Y60S,n.d. / 5.27 / n.d.,4 of 9 (4.43)
Y52P/T58C/T104C,n.d. / n.d. / n.d.,1 of 9 (4.29)
S53K/K65G/F105I,n.d. / n.d. / n.d.,1 of 9 (3.31)
G26P/R100C,4.76 / n.d. / 3.69,2 of 9 (4.57)
D62K/S63R,4.30 / 3.75 / n.d.,6 of 9 (3.85)
G26A/V64C/G99N,n.d. / n.d. / 6.06,2 of 9 (3.96)
G55C/D62F/G103V,2.55 / n.d. / n.d.,0 of 9
D62C/A102M/S107R,n.d. / n.d. / n.d.,0 of 9
S35M/S63C/V64L,4.72 / 3.90 / 3.89,1 of 9 (4.75)
S35Y/Y60F/G99P,n.d. / n.d. / n.d.,0 of 9
Y60V/K65H/G99Q,n.d. / n.d. / n.d.,0 of 9
R56K/R100S/S107L,-0.21 / 0.19 / -0.06,1 of 9 (4.27)
V50S/F59Y,n.d. / n.d. / n.d.,1 of 9 (3.25)
S63C/G99S/D106A,n.d. / n.d. / n.d.,1 of 9 (3.97)
T58D/Y60C/S107D,4.81 / 5.32 / 3.85,4 of 9 (4.59)
Y32I/R56Q/Y60F,n.d. / n.d. / n.d.,1 of 9 (2.76)
F59A/V64E/T104C,2.23 / 1.80 / 2.96,0 of 9
I34N/D54N/A102M,n.d. / n.d. / n.d.,2 of 9 (4.25)
N30R/A101G/A102S,n.d. / n.d. / n.d.,0 of 9
G26L/S63Y/F105W,n.d. / 2.85 / n.d.,0 of 9
L29K/S31F,n.d. / n.d. / n.d.,0 of 9
G33M/A101W/F105Q,n.d. / n.d. / n.d.,1 of 9 (3.64)
T58C/S63E/A101T,1.14 / 1.25 / 1.06,2 of 9 (4.30)
F27Y/Y32I/T104H,n.d. / n.d. / n.d.,0 of 9
L29I/N30Y/D106N,n.d. / n.d. / n.d.,0 of 9
T28Q/S35K,n.d. / n.d. / n.d.,0 of 9
G26P/N30R/S107G,n.d. / n.d. / n.d.,3 of 9 (3.60)
D54F/R57N/D106Q,n.d. / n.d. / n.d.,0 of 9
G33S/T58R/K65Q,4.25 / n.d. / n.d.,1 of 9 (4.36)
F27T/G55Y,n.d. / 3.15 / n.d.,0 of 9
D54A/R57M/G99H,n.d. / 2.88 / 4.50,5 of 9 (3.89)
G33D/Y52G/S63A,n.d. / n.d. / n.d.,2 of 9 (4.52)
G26R/G99R/R100Y,3.96 / 4.56 / n.d.,1 of 9 (3.15)
Y52N/Y60E/A102C,n.d. / n.d. / n.d.,0 of 9
F27D/G55D/K65M,n.d. / n.d. / 5.27,2 of 9 (4.24)
S35L/S63P/S107R,n.d. / 3.97 / n.d.,0 of 9
G55D/R100V/A101Q,n.d. / n.d. / 4.52,1 of 9 (3.45)
G55K/Y60T/F105M,n.d. / n.d. / n.d.,0 of 9
Y60D/D62M,n.d. / n.d. / n.d.,1 of 9 (3.12)

Extract of 3 entries:

changes,log10 Kd (nM) by replicate,control signals
Y52P/T58C/T104C,n.d. / n.d. / n.d.,1 of 9 (4.29)
F27D/G55D/K65M,n.d. / n.d. / 5.27,2 of 9 (4.24)
V50W/Y52K/Y60S,n.d. / 5.27 / n.d.,4 of 9 (4.43)